Reference: patent US9624201B2, “Inhibitors of bruton's tyrosine kinase” (Hoffmann-La Roche Inc., priority 2013, dated 2017)

The chains behind the UniProt entries cited, without tags or fusion partners. Where a name states a change or a piece, a line headed by the entry shows the natural chain unless it says otherwise.
UniProt Q06187: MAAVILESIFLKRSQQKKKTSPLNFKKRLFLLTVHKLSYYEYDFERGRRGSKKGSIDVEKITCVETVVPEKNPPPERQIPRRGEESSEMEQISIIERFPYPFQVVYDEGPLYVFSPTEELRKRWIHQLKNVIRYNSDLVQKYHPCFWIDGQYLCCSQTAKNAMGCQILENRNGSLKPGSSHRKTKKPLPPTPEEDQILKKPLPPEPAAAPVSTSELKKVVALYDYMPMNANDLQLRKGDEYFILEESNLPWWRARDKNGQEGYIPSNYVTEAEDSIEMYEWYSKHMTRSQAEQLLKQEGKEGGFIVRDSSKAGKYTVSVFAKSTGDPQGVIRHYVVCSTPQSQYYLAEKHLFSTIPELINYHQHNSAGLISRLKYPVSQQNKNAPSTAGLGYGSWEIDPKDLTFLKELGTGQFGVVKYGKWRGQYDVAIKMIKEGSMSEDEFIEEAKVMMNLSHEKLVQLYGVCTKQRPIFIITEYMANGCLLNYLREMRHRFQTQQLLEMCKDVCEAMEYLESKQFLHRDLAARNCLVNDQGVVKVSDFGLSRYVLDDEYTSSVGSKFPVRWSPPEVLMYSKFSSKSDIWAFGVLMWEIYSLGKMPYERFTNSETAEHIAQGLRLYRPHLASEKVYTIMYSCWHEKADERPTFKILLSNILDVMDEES

Target: Bruton's Tyrosine Kinase (inactivated state) (Homo sapiens (Human), UniProt Q06187)
Test: Bruton's Tyrosine Kinase (BTK) Inhibition TR-FRET (Time Resolved FRET) competition assay
Type: binding
Details: inactivated state of BTK; Kinase Tracer 178; incubated 18-24 h at 14° C.
Description: This BTK competition assay measures compound potency (IC50) for the inactivated state of Bruton's Tyrosine Kinase using FRET (Forster/Flouresence Resonance Energy Transfer) technology. The BTK-Eu complex was incubated on ice one hour prior to use at a starting concentration of 50 nM BTK-Bioease™: 10 nM Eu-streptavidin (Perkin-Elmer Catalog# AD0062). The assay buffer consisted of 20 mM HEPES (pH 7.15), 0.1 mM DTT, 10 mM MgCl2, 0.5 mg/ml BSA with 3% Kinase Stabilizer (Fremont Biosolutions, Catalog # STB-K02). After 1 h, the reaction mixture from above was diluted 10 fold in assay buffer to make 5 nM BTK: 1 nM Eu-Streptavidin complex (donor fluorophore). 18 μl of a mixture of 0.11 nM BTK-Eu and 0.11 nM Kinase Tracer 178 (Invitrogen, Catalog # PV5593,) with BTK-Eu alone as no negative control, was then dispensed into 384-well flat bottom plates (Greiner, 784076). […]
After the incubation the plates were read on a BMG Pherastar Fluorescent plate reader (or equivalent) and used to measure the emission energy from the europium donor fluorophore (620 nm emission) and the FRET (665 nm emission). […] Percent of maximal FRET was calculated using following equation: % max FRET=100×[(FSRcmpd−FSRmean min)/(FSRmean max−FSRmean min)] where FSR=FRET Signal ratio. % Max FRET curves were plotted in Activity Base (Excel) and the IC50(%), hill slope, z′ and % CV were determined. […]

IC50: 5.59 nM
SMILES: Cc1cc(Oc2cccc(F)c2F)ccc1-n1ncc(C(=O)c2cc3c(CN4CCOCC4)cccc3[nH]2)c1N [Compound 19, {5-Amino-1-[4-(2,3-difluoro-phenoxy)-2-methyl-phenyl]-1H-pyrazol-4-yl}-(4-morpholin-4-ylmethyl-1H-indol-2-yl)-methanone]
